Sequences of proteins named here, by UniProt entry; tags and fusion partners are left off.
ADP-ribosylation factor GTPase-activating protein 1 (Rattus norvegicus), Q62848, UniProt Q62848, whole entry, looked up: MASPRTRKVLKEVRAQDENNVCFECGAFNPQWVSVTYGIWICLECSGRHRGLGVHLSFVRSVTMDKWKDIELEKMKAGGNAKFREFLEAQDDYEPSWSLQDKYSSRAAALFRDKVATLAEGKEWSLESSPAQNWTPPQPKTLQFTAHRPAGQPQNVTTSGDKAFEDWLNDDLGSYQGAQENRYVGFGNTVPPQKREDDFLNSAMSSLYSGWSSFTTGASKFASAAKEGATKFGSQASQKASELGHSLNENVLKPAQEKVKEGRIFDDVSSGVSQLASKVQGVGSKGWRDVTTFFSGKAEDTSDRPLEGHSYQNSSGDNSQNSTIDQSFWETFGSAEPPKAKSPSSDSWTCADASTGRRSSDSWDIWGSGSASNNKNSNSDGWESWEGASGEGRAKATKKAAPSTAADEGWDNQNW
Melanocortin receptor 4 (Homo sapiens), P32245, UniProt P32245, whole entry, looked up: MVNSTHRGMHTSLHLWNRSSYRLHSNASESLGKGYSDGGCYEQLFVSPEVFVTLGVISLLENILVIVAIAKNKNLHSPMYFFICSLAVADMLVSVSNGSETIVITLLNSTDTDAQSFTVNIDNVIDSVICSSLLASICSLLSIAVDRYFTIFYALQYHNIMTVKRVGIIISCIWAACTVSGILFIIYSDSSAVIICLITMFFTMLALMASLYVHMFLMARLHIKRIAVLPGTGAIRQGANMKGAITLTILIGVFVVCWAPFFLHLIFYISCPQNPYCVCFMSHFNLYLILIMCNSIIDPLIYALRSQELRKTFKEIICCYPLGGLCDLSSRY

# UUG fidelity = yeast start codon fidelity modulation | S. cerevisiae UUG-firefly luciferase reporter, luminescence/redox ratio | activity score, % at 18.7 µM | hit rate 0.13% among 350,000 | AID 602363;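 active means replicate mean at a twofold rise or more, about +100% in these data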;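 further: firefly luciferase made from a UUG start codon reports start codon fidelity; reporter light over untreated wells divided by growth signal over untreated wells; some hits fall short of that in this replicate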
# ASAP1 GAP inh = inhibitors of human ASAP1 ArfGAP activity, primary screen, biochemical, fluorescence polarization; Arf-GAP with SH3 domain, ANK repeat and PH domain-containing protein 1 (Homo sapiens), …; ASAP1-stimulated ARF1 GTP hydrolysis, GDP FP detection; inhibition, % at 16.5 µM; 360,000 compounds, 0.19% hits; AID 624377, 2012; in the data active means inhibition above about 25%;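 further: 0% = vehicle with enzyme and substrate and 100% = no enzyme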
# MC4R ag barr = MC4R agonists recruiting beta-arrestin, primary screen, cell-based, luminescence, agonist arm of biased-ligand search. activation, % at 8.9 µM. U2OS MC4R beta-arrestin complementation; percent of melanotan II response, DMSO zero. AID 540308, 2011. 360,000 compounds, 0.98% hits;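 active means activation above a per-plate cutoff, the mean activation of sample wells on that plate plus 3 SD, cut at about 8% in these data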
# ARFGAP1 inhibitor = inhibitors of rat ARFGAP1 GAP activity, primary screen, biochemical, fluorescence polarization, GDP tracer | ADP-ribosylation factor GTPase-activating protein 1 (Rattus norvegicus), Q62848 | Arfgap1-stimulated ARF1 GTP hydrolysis, GDP FP detection | inhibition, % at 16.5 µM | 360,000 compounds, 0.26% hits | AID 651572, 2012;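 active means inhibition above a per-plate limit, mean inhibition of low control wells plus 3 SD, cut at about 25% in these data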;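 further: 0% = DMSO wells with enzyme and 100% = wells lacking Arfgap1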
#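 Material – truncated rat Arfgap1 GAP domain · Buffer or medium – HEPES-based buffer, pH 7.5 · Reagent – human ARF1(Δ1-17)-GTP substrate · Dosing – 16.5 µM single point, 1.26% DMSO · Schedule – GTP hydrolysis reaction 2 h at 25 °C · Technique – GDP detection by fluorescence polarization · Benchmarks – No-Arfgap1 wells (100%) versus DMSO full-reaction wells (0%) · Repeats – single replicate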
# NRP1-CendR mod = modulators of CendR peptide binding to NRP-1, primary screen, biochemical, fluorescence polarization, uHTS. 360,000 compounds, 0.85% hits. inhibition, % at 25 µM. FAM-RPARPAR peptide binding to NRP-1;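 active means inhibition or corrected inhibition above about 18%, plus a signal ratio from 0.5 to 1.5, limit read from the data, passing the limit was not always enough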
# MC4R antag cAMP = MC4R antagonists of cAMP signaling, primary screen, cell-based, TR-FRET, antagonist arm of biased-ligand search. Melanocortin receptor 4 (Homo sapiens), P32245. MC4R-expressing cells, MTII-stimulated cAMP, LANCE TR-FRET. inhibition, % at 6.5 µM. 360,000 compounds, 0.48% hits. AID 540295, 2011;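 active means inhibition above its plate's cutoff, the mean of tested wells on that plate plus 3 SD, cut at about 29% in these data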;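 further: 0% = Melanotan II alone and 100% = Melanotan II plus saturating MCL0020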
#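 Material: U2OS-MC4R stable cell line | Reagent: Melanotan II challenge after compound preincubation | Doses: One concentration, 6.5 µM nominal | Incubation: 30-min compound preincubation, 1-h Melanotan II challenge, 1-h detection, room temperature | Signal: TR-FRET cAMP assay | Replicates: One well per compound, no replicates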
# U2OS cAMP counter = nonselective cAMP signaling inhibitors, parental cells, counter-screen for MC4R biased antagonist project, cell-based, TR-FRET, U2OS, forskolin, triplicate; LANCE TR-FRET; 1,600 compounds, 26% hits; inhibition, % at 6.5 µM; shares compounds with MC4R antag cAMP;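 active means mean inhibition over triplicates above the low-control well mean plus 3 SD, set per campaign, cut at about 13% in these data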;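 further: signal is single emission at 671 nm which falls as cellular cAMP rises; 0% = forskolin-stimulated wells and 100% = buffer without forskolin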
# MC4R cAMP antag = MC4R cAMP antagonists, retest, confirmation, cell-based, TR-FRET; shares compounds with MC4R antag cAMP; MC4R-expressing cells, MTII-stimulated cAMP; inhibition, % at 6.5 µM; 1,600 compounds, 27% hits; AID 602195, 2012; in the data active means inhibition above about 29%;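 further: 0% = agonist stimulated wells alone and 100% = agonist stimulated wells plus saturating reference antagonist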
# Starred values were filed as active, the others as inactive; x = no result. Rows were chosen to be rich in hits. Some 2.3% of all compounds tested hit in one or more screens of this group.
SMILES,UUG fidelity,ASAP1 GAP inh,MC4R ag barr,ARFGAP1 inhibitor,NRP1-CendR mod,MC4R antag cAMP,U2OS cAMP counter,MC4R cAMP antag
C[C@@H]1CN([C@@H](C)CO)S(=O)(=O)c2ccc(C3=CCCC3)cc2O[C@@H]1CN(C)Cc1ccccc1F,21,x,x,x,x,x,x,x
CCOC(=O)c1c(-c2ccc(F)cc2)csc1NC(=O)CN1C(=O)NC2(CCCCC2C)C1=O (centres undefined),-13,-6,1,-3,1,32*,-7,6
C[C@@H]1CN([C@@H](C)CO)C(=O)Cc2cc(NC(=O)Cn3cnnn3)ccc2O[C@H]1CN(C)Cc1ccc(Oc2ccccc2)cc1,25,x,x,x,x,x,x,x
C[C@@H]1CN([C@@H](C)CO)C(=O)c2cc(NC(=O)Nc3cccc4ccccc34)ccc2O[C@@H](C)CCCCO[C@@H]1CN(C)C(=O)C1CCCCC1,-12,x,x,x,x,x,x,x
COCC(=O)Nc1sc2c(c1C(=O)OC)CCCC2,-18,17,-3,3,-5,-10,x,x
COC(=O)c1c(NC(=O)COC(=O)c2ccc(O)cc2)sc2c1CCCCC2,x,10,3,1,-4,30*,-1,6
CC(C)c1ccc(NC(=O)CSc2nc3ccsc3c(=O)n2CCC(=O)O)cc1,2,0,1,-9,6,35*,2,4
CC(OC(=O)Cn1cc(C(F)(F)F)ccc1=O)C(=O)NC(C)c1ccc(Cl)cc1Cl (centres undefined),1,-4,-2,-14,-16,17,x,x
CC(OC(=O)Cn1cnc2c1c(=O)n(C)c(=O)n2C)C(=O)NC(C)c1ccc(Cl)cc1Cl (centres undefined),-7,8,-4,-6,0,36*,12,12
C[C@H]1CCCCO[C@H](CN(C)C(=O)CCC(F)(F)F)[C@@H](C)CN([C@@H](C)CO)C(=O)c2cc(N(C)C)ccc2O1,5,x,x,x,x,x,x,x
C[C@H]1CCCCO[C@@H](CN(C)Cc2ccncc2)[C@@H](C)CN([C@@H](C)CO)C(=O)c2cc(N(C)C)ccc2O1,-10,x,x,x,x,x,x,x
Cc1ccc(S(=O)(=O)NCCC(=O)OCC(=O)N2CCCC2=O)cc1,-11,12,-2,3,7,5,x,x
N#Cc1ccc(S(=O)(=O)NCC(=O)OCC(=O)N2CCCC2=O)cc1,8,4,-5,11,-1,34*,19*,14
CCN(C[C@H]1N[C@@](Cc2ccccc2)(C(=O)OC)[C@H]2C(=O)N(Cc3ccccc3)C(=O)[C@@H]12)S(=O)(=O)c1ccc(C(F)(F)F)cc1,-22,8,3,-2,-1,38*,1,1
COc1ccc(CN(C(=O)c2snc(C(N)=O)c2N)C(C(=O)NC2CCCC2)c2ccc(OC)c(OC)c2)cc1 (centres undefined),-9,-3,1,4,-3,0,x,x
COc1ccc(C(C(=O)NC2CCCCC2)N(Cc2cccnc2)C(=O)c2snc(C(N)=O)c2N)cc1 (centres undefined),8,-15,-2,7,15,31*,-6,-12
O=C(CCN1CCc2ccccc2C(c2ccccc2)C1)c1ccc2c(c1)OCCO2 (centres undefined),x,9,-4,14,9,24,x,x
O=C(CCN1Cc2ccccc2C1)c1ccc2c(c1)OCCO2,-3,-5,-3,9,-7,34*,18*,31*
CC1(C(=O)N2CCC(CO)(Cc3cccc(C(F)(F)F)c3)CC2)CC1,3,-9,2,-7,-3,30*,-2,-18
C[C@H]1CCCCO[C@H](CN(C)Cc2ccc3c(c2)OCO3)[C@@H](C)CN([C@@H](C)CO)C(=O)c2cc(NC(=O)Nc3ccc(F)cc3)ccc2O1,19,x,x,x,x,x,x,x
Cc1cc(/C=C2/NC(=O)N(Cc3ccccc3F)C2=O)c(C)n1C,-9,2,0,12,14,35*,2,5
Cc1cc(/C=C2/NC(=O)N(Cc3ccccc3F)C2=O)c(C)n1-c1ccccn1,x,11,-2,1,0,8,x,x
CCOC(=O)c1c(NC(=O)C(C)OC(=O)C2=COCCO2)sc2c1CCCC2 (centres undefined),-14,x,0,x,6,36*,0,19
COc1ccccc1N(C)S(=O)(=O)c1ccc(C(=O)OCC(=O)c2c[nH]c3ccccc23)cc1,x,-11,4,7,-12,39*,5,5
COc1ccccc1N(C)S(=O)(=O)c1ccc(C(=O)OCC(=O)N(C)c2ccccc2)cc1,19,2,-3,-4,5,4,x,x
C[C@@H]1CN([C@@H](C)CO)C(=O)c2cccc(NS(=O)(=O)c3cn(C)cn3)c2O[C@H]1CN(C)Cc1ccc(C(F)(F)F)cc1,-3,x,x,x,x,x,x,x
C[C@H](CO)N1C[C@H](C)[C@H](CN(C)C(=O)Nc2ccccc2)Oc2cc(C#CC3(O)CCCC3)ccc2S1(=O)=O,3,x,x,x,x,x,x,x
CC(=O)c1sc(-c2ccccc2)cc1NS(=O)(=O)c1ccc(C)cc1,-14,4,1,1,-8,35*,32*,57*
CC(=O)c1sc(-c2ccccc2)cc1NS(=O)(=O)c1ccccc1,-11,-7,-1,-3,5,21,x,x
CC(C)(C)N/N=C/c1cc(Cl)cc([N+](=O)[O-])c1O,x,-11,3,0,10,16,x,x
CN(/N=C/c1cc(Cl)cc(Cl)c1O)c1c(Cl)cccc1[N+](=O)[O-],-20,11,0,6,3,30*,-4,12
O=C(N[C@@H]1CC[C@H](CCNS(=O)(=O)c2cccc(Cl)c2)O[C@@H]1CO)c1ccncc1,-11,x,x,x,x,x,x,x
CC1=NNC(=O)/C1=C\c1cn(-c2ccccc2)nc1-c1ccccc1,x,-4,-4,12,-2,51*,26*,57*

# A few values from above.
# `CC1(C(=O)N2CCC(CO)(Cc3cccc(C(F)(F)F)c3)CC2)CC1` @ MC4R cAMP antag: -18
# `C[C@@H]1CN([C@@H](C)CO)C(=O)Cc2cc(NC(=O)Cn3cnnn3)ccc2O[C@H]1CN(C)Cc1ccc(Oc2ccccc2)cc1` @ UUG fidelity: 25

# 5 entries already listed, arranged by the number in ARFGAP1 inhibitor, descending.
molecule | ARFGAP1 inhibitor
CC1=NNC(=O)/C1=C\c1cn(-c2ccccc2)nc1-c1ccccc1 | 12
COc1ccccc1N(C)S(=O)(=O)c1ccc(C(=O)OCC(=O)c2c[nH]c3ccccc23)cc1 | 7
Cc1cc(/C=C2/NC(=O)N(Cc3ccccc3F)C2=O)c(C)n1-c1ccccn1 | 1
CC(C)(C)N/N=C/c1cc(Cl)cc([N+](=O)[O-])c1O | 0
CC(=O)c1sc(-c2ccccc2)cc1NS(=O)(=O)c1ccccc1 | -3

# Assay outcomes: PubChem, several laboratories
